These results are taken from PubChem BioAssay AID651768 (National Center for Advancing Translational Sciences (NCATS), 2012).

The chains behind the UniProt entries cited, without tags or fusion partners.
UniProt Q14191, whole entry: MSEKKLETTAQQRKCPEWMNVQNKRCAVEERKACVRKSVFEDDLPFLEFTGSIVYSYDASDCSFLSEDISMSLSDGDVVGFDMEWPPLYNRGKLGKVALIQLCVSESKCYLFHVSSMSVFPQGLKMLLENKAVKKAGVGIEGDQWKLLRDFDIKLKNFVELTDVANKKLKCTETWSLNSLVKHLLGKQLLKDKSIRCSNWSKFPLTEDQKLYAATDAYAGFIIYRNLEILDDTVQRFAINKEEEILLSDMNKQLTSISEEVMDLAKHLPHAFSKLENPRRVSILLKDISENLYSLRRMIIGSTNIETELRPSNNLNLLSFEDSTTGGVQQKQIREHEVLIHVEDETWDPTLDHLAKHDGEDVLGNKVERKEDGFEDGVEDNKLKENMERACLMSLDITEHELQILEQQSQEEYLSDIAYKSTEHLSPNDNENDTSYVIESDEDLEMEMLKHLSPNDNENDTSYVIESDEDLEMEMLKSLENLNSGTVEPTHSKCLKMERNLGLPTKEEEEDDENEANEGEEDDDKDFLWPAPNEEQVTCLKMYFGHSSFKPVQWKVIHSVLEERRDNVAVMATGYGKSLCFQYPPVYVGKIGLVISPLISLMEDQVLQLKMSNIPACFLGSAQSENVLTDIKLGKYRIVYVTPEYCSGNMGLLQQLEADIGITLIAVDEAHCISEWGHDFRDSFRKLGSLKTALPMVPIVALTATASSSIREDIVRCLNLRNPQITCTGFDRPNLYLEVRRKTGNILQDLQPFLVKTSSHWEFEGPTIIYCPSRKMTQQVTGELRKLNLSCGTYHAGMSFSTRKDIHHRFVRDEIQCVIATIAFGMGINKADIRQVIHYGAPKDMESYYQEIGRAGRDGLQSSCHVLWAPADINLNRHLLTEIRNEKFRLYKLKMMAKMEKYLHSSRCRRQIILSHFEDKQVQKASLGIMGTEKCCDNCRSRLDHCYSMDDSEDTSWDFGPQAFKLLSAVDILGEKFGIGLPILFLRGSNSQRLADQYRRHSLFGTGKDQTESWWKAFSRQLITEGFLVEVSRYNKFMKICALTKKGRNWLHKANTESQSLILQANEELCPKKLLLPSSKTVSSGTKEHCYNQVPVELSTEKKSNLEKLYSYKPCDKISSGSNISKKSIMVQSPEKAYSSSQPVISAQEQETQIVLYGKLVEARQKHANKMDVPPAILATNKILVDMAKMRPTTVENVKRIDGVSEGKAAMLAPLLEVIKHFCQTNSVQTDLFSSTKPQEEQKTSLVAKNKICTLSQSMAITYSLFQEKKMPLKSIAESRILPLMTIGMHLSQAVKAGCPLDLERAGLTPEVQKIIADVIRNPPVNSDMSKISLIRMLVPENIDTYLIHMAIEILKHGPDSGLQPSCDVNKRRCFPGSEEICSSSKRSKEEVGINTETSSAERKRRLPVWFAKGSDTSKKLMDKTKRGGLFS

This is a selection; strong and weak results do not stand in their true shares. Activity calls are given as the source filed them. Calls follow the shape of the dose curve; as a rule, active = well fitted inhibition curve with a large enough effect; inconclusive = small, poorly fitted or top-dose-only effect; inactive = no such curve, though single readings can be large or run the other way.
% is scaled to controls: 0 for no effect and ±100 for the full control effect.

In this assay the target is Bifunctional 3'-5' exonuclease/ATP-dependent helicase WRN (Homo sapiens) (UniProt Q14191). In words: qHTS for Inhibitors of WRN Helicase. Also: nearly all actives have a fitted effect of over 55% in size. To be noted: WRN helicase unwinding, fluorescent forked duplex, kinetic; at 114 µM (top of the series) unless noted. The text has this: Inhibition of DNA repair is proposed as a strategy for combating cancer. Synthetic lethality is an approach that exploits preexisting DNA repair deficiencies in certain tumors to develop inhibitors of DNA repair pathways that compensate for the tumor-associated DNA repair deficiency. Because helicases play critical roles in the DNA damage response and in DNA repair, particularly in actively dividing and replicating cells, characterization of synthetic lethal relationships of DNA helicases may be of value in developing improved anticancer treatment strategies; moreover, small molecules that specifically target a given DNA helicase may be useful for understanding its role in cellular nucleic acid metabolism. The goal of this project is to identify small molecule, non-covalent chemical inhibitors of the Werner syndrome (WS) helicase (WRN), which plays an important role in cell proliferation, the replication stress response, and DNA repair. […] The WRN gene product that is defective in the chromosomal instability disorder has DNA helicase and exonuclease activities and interacts with a number of nuclear proteins to maintain genomic stability. We will employ an optimized high-throughput screening assay that utilizes a fluorescence intensity modulation scheme with a fluorophore and quencher positioned near one another within a duplex deoxyoligonucleotide that contains a single forked structure. After a high-throughput screen of the ~350,000-member Molecular Libraries Small Molecule Repository (MLSMR) collection, followed by data analysis and hit selection, a panel of confirmatory, as well as secondary and ternary, assays will be employed to identify high-confidence WRN inhibitors. Structure-activity relationships will be investigated for the top candidate inhibitor series through medchem expansion. These are the results of the primary screening campaign against the MLSMR. NIH Chemical Genomics Center [NCGC] NIH Molecular Libraries Probe Centers Network [MLPCN] MLPCN Grant: MH096530 Assay Submitter (PI): Robert Brosh, National Institute of Aging
Three muL of reagents (buffer in columns 3 and 4 as negative controls; WRN at 20 nM final concentration in columns 1 and 2 as positive controls; columns 5-48 as test reactions) will be dispensed into a 1536-well Greiner black plate via solenoid-valve based nanoliter dispensers. Compounds (23 nL each in columns 5-48) and control (23 nL each in column 2 as dose-response) will be transferred via a Kalypsys pintool equipped with a 1536-pin array. Plates will be incubated for 15 min at room temperature, and then 1 µL of substrate (100 nM forked duplex oligonucleotide and 2 mM ATP final concentrations) will be added to start reaction, and plate will be transferred into a ViewLux high-throughput CCD imager where reaction progress is measured in kinetic mode using standard red-fluorescence optics (excitation filter 525 nm, emission filter 598 nm).
Background: Quantitative high-throughput screening tests each substance at several concentrations.
Regarding `CCOC(=O)c1ccc(NP(C)(=O)Oc2ccc(OC)cc2)cc1` (stereo not given), the activity change, negative = inhibition is inactive: -12.3% [at 57.1 µM]. The same measure for `CCOP(C)(=S)SCC(=O)NC(C)C(=O)O` (stereo not given): inactive: -0.92% [at 57.1 µM]. The same measure for `CP(=O)(Nc1ccccn1)Oc1ccc(Cl)cc1` (stereo not given): inactive: 177%; for `CP(=O)(Nc1ccc(SC(F)(F)F)cc1)Oc1ccc(Cl)cc1` (stereo not given): inactive: -10.8%.

With `Cc1cccc(C)c1OP(C)(=O)Nc1ccc(SC(F)(F)F)cc1` (stereo not given), the activity change, negative = inhibition is inactive: -5.26%.

Take `CP(=O)(Oc1ccccc1)OC(c1ccccc1)C(F)(F)F` (stereo not given): the activity change, negative = inhibition is inactive: -7.42%. With `CP(=O)(NC(=O)Nc1ccccc1)Oc1ccccc1` (stereo not given), the activity change, negative = inhibition is inactive: -8.37%. To `CCc1ccc(OP(C)(=O)N2CCN(c3ccc([N+](=O)[O-])cc3)CC2)cc1` (stereo not given) belongs inactive: -5.42%; to `Cc1cc(C)cc(OP(C)(=O)Nc2ccc(SC(F)(F)F)cc2)c1` (stereo not given), inactive: -8.91%.

On to `O=[N+]([O-])c1cc([N+](=O)[O-])c(-c2cnn(-c3ccccc3)c2)c([N+](=O)[O-])c1`, for which the activity change, negative = inhibition is inactive: -10.3%. Turning to `O=[N+]([O-])c1cc([N+](=O)[O-])c(-n2nnc3ccccc32)c([N+](=O)[O-])c1`, the activity change, negative = inhibition was inactive: -17.6%. For the molecule `CN(Cc1cccnc1)C(=O)COc1ccc(Cl)c(Cl)c1.O=[N+]([O-])c1cc([N+](=O)[O-])c(O)c([N+](=O)[O-])c1`, the activity change, negative = inhibition was inactive: 7.01%.

Regarding `CN1CCCCC1COC(=O)C1(O)c2ccccc2CCc2ccccc21` (stereo not given), the activity change, negative = inhibition was inactive: -12.7%.

For the molecule `COc1ccccc1OP(C)(=O)Nc1c(C)cccc1C` (stereo not given), the activity change, negative = inhibition is inactive: 4.77%. To `COc1ccc(-c2ccccn2)cc1.O=[N+]([O-])c1cc([N+](=O)[O-])c(O)c([N+](=O)[O-])c1` belongs inactive: -2.4% [at 57.1 µM].

Regarding `CCCOc1ccc(NP(C)(=O)Oc2ccc(Cl)cc2)cc1` (stereo not given), the activity change, negative = inhibition is inactive: -19.3%. On to `CP(=O)(Nc1ccc(SC(F)(F)F)cc1)Oc1ccccc1` (stereo not given), for which the activity change, negative = inhibition is inactive: -14%. For the molecule `CC1=C2N=C(C=C3N=C(C(C)=C4[N-][C@@](C)([C@@H]5N=C1[C@](C)(CCC(=O)NC[C@@H](C)OP(=O)([O-])O[C@H]1[C@@H](O)[C@@H](n6cnc7cc(C)c(C)cc76)O[C@@H]1CO)[C@H]5CC(N)=O)[C@@](C)(CC(N)=O)[C@@H]4CCC(N)=O)[C@@](C)(CC(N)=O)[C@@H]3CCC(N)=O)C(C)(C)[C@@H]2CCC(N)=O.[C-]#N.[Co+3]`, the activity change, negative = inhibition is inactive: -6.29%. The same measure for `O=[N+]([O-])c1cc([N+](=O)[O-])c(Nc2nnnn2CCO)c([N+](=O)[O-])c1`: inactive: 7.91%; for `Cc1ccc(C)c(NP(C)(=O)Oc2ccccc2)c1` (stereo not given): inactive: 1.4% [at 57.1 µM]. To `Cc1cc(C)cc(OP(C)(=O)Nc2ccccn2)c1` (stereo not given) belongs inactive: -2.73%. On to `CP(=O)(Nc1cccc(Br)c1)Oc1ccccc1` (stereo not given), for which the activity change, negative = inhibition is inactive: -4.97%. For `COc1ccccc1OP(C)(=O)Nc1cccc(Br)c1` (stereo not given), the activity change, negative = inhibition was inactive: 5.85%. To `CCOC(=O)c1ccc(NP(C)(=O)Oc2cc(C)cc(C)c2)cc1` (stereo not given) belongs inactive: -2.42%.

For the molecule `Cc1cc(C)cc(OP(C)(=O)Nc2ccc(C)cc2C)c1` (stereo not given), the activity change, negative = inhibition was inactive: -0.508%.
